Results as given in BindingDB's records for 19269822 (Universita Degli Studi Di Firenze, 2009).

The chains behind the UniProt entries cited, without tags or fusion partners. Where a name states a change or a piece, a line headed by the entry shows the natural chain unless it says otherwise. Residues count along the entry.
UniProt P43166: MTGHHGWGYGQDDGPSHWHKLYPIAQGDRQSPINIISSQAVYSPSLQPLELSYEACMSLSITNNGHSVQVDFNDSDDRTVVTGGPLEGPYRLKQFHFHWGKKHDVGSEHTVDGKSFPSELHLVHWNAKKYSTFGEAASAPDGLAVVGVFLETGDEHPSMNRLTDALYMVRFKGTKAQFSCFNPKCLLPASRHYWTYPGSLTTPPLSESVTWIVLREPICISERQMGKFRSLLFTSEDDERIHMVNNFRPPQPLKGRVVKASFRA
UniProt Q9D6N1: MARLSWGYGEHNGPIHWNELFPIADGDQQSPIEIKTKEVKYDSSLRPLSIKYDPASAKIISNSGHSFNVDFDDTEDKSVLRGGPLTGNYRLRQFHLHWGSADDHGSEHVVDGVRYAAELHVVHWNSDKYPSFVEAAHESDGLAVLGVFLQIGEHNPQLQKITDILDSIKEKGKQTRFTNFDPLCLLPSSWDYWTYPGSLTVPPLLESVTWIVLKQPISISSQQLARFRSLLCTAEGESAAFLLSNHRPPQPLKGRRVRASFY
UniProt P22748, 19-284 limits assumed: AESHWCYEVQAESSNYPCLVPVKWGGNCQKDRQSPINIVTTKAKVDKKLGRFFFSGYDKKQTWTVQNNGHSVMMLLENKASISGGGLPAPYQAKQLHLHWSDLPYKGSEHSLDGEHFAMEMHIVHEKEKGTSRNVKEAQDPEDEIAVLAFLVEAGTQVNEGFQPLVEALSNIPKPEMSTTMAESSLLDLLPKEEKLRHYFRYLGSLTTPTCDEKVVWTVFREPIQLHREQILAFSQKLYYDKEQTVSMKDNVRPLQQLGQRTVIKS

How the values were obtained:
Carbonic anhydrase 7 = Carbonic anhydrase 7 (Homo sapiens, UniProt P43166); assay: Inhibition of human recombinant carbonic anhydrase 7-catalyzed CO2 hydration by stopped flow assay
Carbonic anhydrase 13 = Carbonic anhydrase 13 (Mus musculus, UniProt Q9D6N1); assay: Inhibition of mouse recombinant carbonic anhydrase 13-catalyzed CO2 hydration by stopped flow assay
Carbonic anhydrase 4 = Carbonic anhydrase 4 (Homo sapiens, UniProt P22748); assay: Inhibition of human recombinant carbonic anhydrase 4-catalyzed CO2 hydration by stopped flow assay

Row | Structure (SMILES) | Ki (Carbonic anhydrase 7) | Ki (Carbonic anhydrase 13) | Ki (Carbonic anhydrase 4)
1 | [O]=[V]([OH])([OH])[O][V](=[O])([OH])[OH] | 600 µM | 390 µM | 290 µM
2 | O=S(=O)(O)F | 1310 µM | 61800 µM | 39700 µM
